Source: patent US9127233B2, “Device and method for solubilizing, separating, removing and reacting carboxylic acids in oils, fats, aqueous or organic solutions by means of micro-or nanoemulsification” (priority 2010, dated 2015)

Assay: pH of aqueous solution of solubilizing compound mixed with oleic acid
Assay type: physicochemical
Conditions: solubilizing compound in water with 0.833 mol equivalents of oleic acid

Poly-L-arginine HCl [Poly-L-arginine HCl (70.000-150.000 MW)]
pH: 11.37
